# GIV Gai3 FP: GIV-Galpha-i interaction inhibition; AID 1224905; 210,000 tested, 0.42% active; Galpha-i3/FITC-GIV peptide fluorescence polarization, 90 min; stronger effect = lower value; scaled: aluminum fluoride 0%, vehicle 100%; percent of control (FP), % (concentration not given with the values);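 active = replicate mean at 85% of control or lower, very high polarization wells dropped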;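 also: wells of about 15 µL received 100 nL stock; the first replicate is given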
# HCMV UL50-53 inh: cytomegalovirus nuclear egress complex inhibition | 190,000 compounds, 0.15% hits | HTRF UL50-UL53 interaction, normalized percent inhibition | inhibition, % (no concentration beside the values); in the data active = inhibition above about 27%, passing the limit was not always enough
# GIV-Gai FP conf: confirmation of inhibitors of GIV binding to rat Galpha-i3; 580 compounds, 38% hits; fluorescence polarization, mP at 100 µM; FITC-GIV peptide binding to Galphai3, fluorescence polarization; stronger effect = lower value; AID 1259350; shares compounds with GIV Gai3 FP;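 active = inhibition score of 15 or more, meaning 100 minus mean polarization as percent of control over three replicates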
# GIV Gai AS conf: GIV-Galpha-i3 inhibition, AlphaScreen confirmation | shares compounds with GIV Gai3 FP | AlphaScreen Galphai3-GIV binding, purified proteins, 90 min; stronger effect = lower value | AlphaScreen counts at 100 µM | 580 compounds, 39% hits | AID 1259351;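 active = inhibition score at or above a set limit, where the score is 100 minus the three-replicate mean percent of control signal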
# The depositor's hits bear a star; . = not tested or not shown. The full list was thinned out, with hits kept by preference.
Molecule | GIV Gai3 FP | HCMV UL50-53 inh | GIV Gai AS conf | GIV-Gai FP conf
CCOC(=O)c1cccc(NC(=O)c2sc3nc[nH]c(=O)c3c2C)c1 | 92.5 | . | 34553 | 78.2
O=C(CSc1oc(-c2ccc(F)cc2)nc1S(=O)(=O)c1ccccc1)c1ccc(Cl)cc1 | 106.9 | -1.2 | . | .
CCOc1ccccc1NC(=O)CSc1nc2ccccc2nc1N1CCOCC1 | 104.1 | 11.4 | . | .
Cc1cc(OCc2nc(CC(=O)NCC(C)C)cs2)ccc1Cl | 96.2 | -19.1 | 41855 | 69.4
Cc1cc(OCc2nc(CC(=O)NC3CC3)cs2)ccc1Cl | 122.6 | -12.6 | . | .
Cc1ccc(/C=C2/SC(=O)NC2=S)o1 | 79.8* | . | 2262* | 56.8*
Cc1ccc(/C=C2\SC(=O)NC2=O)o1 | . | -55.3 | . | .
COc1ccccc1OCc1ccc(C(=O)OCC2CCCO2)o1 (centres undefined) | 97.4 | -6.8 | . | .
COc1ccc(OC)c(NC(=O)NCC(c2cccnc2)c2cn(C)c3ccccc23)c1 (centres undefined) | 103.3 | -32.5 | . | .
CC1CCN(c2ccc(-c3nc(C(C)C)no3)cc2[N+](=O)[O-])CC1 | 100.3 | -30.9 | . | .
CS(=O)(=O)NCCc1nc(-c2ccccc2)cs1 | 102.8 | -14.0 | . | .
CCOC(=O)COc1ccc2c(C#N)c3ccccn3c2c1 | 43.0* | -25.2 | 44204 | 64.3
N#Cc1c2ccc(OCC(N)=O)cc2n2ccccc12 | 103.1 | -17.1 | . | .
CCCCn1nc(C)c(C(=O)NC2=NCCS2)c1Cl | . | -16.1 | . | .
Cc1ccc(COc2ccc(C(c3c(C)[nH]n(-c4ccccc4)c3=O)c3c(C)[nH]n(-c4ccccc4)c3=O)cc2)cc1 | 114.5 | . | . | .
Cc1[nH]n(-c2ccccc2)c(=O)c1C(c1ccc(C#N)cc1)c1c(C)[nH]n(-c2ccccc2)c1=O | 71.1* | . | 33414 | 66
Cc1[nH]n(-c2ccccc2)c(=O)c1C(c1cc(Br)ccc1O)c1c(C)[nH]n(-c2ccccc2)c1=O | 105.8 | . | . | .
Cc1[nH]n(-c2ccccc2)c(=O)c1C(c1cc([N+](=O)[O-])ccc1O)c1c(C)[nH]n(-c2ccccc2)c1=O | 76.3* | . | 23681* | 64.3
CCOc1ccc(C(c2c(C)[nH]n(-c3ccccc3)c2=O)c2c(C)[nH]n(-c3ccccc3)c2=O)cc1 | 100.9 | . | . | .
CCCCCCOc1ccc(C(c2c(C)[nH]n(-c3ccccc3)c2=O)c2c(C)[nH]n(-c3ccccc3)c2=O)cc1 | 62.3* | . | 11116* | 66.9

# Three structures from above, ordered by formula weight, high to low.
Molecule | GIV Gai3 FP | HCMV UL50-53 inh | GIV Gai AS conf | GIV-Gai FP conf
O=C(CSc1oc(-c2ccc(F)cc2)nc1S(=O)(=O)c1ccccc1)c1ccc(Cl)cc1 | 106.9 | -1.2 | . | .
Cc1[nH]n(-c2ccccc2)c(=O)c1C(c1ccc(C#N)cc1)c1c(C)[nH]n(-c2ccccc2)c1=O | 71.1* | . | 33414 | 66
Cc1cc(OCc2nc(CC(=O)NC3CC3)cs2)ccc1Cl | 122.6 | -12.6 | . | .

# More entries
Molecule | GIV Gai3 FP | HCMV UL50-53 inh | GIV Gai AS conf | GIV-Gai FP conf
O=C(CN1C(=O)/C(=C2\SC(N3CCOCC3)=NC2=O)c2ccccc21)Nc1ccc(F)cc1 | 104.8 | . | . | .
NC1=NC(c2ccccc2)C(C(=O)c2ccccc2)N1 (centres undefined) | 105.1 | -48.5 | . | .
Cc1ccc(-n2c(/C=C/c3c(C)n(C)c4ccccc34)nc3ccccc3c2=O)cc1 | 88.2 | -24.5 | 36423 | 76
Cn1cc(/C=C/c2nc3ccccc3c(=O)n2-c2ccc([N+](=O)[O-])cc2)c2ccccc21 | 102.2 | -19.8 | . | .
O=C(OCC1CCCN2CCCCC12)c1cc2nc(-c3ccco3)cc(C(F)(F)F)n2n1 (centres undefined) | . | -34.3 | . | .
Cc1ccc(C)n1-c1ccsc1C(=O)CC#N | 97.0 | -14.8 | . | .
Cc1ccc(C)n1-c1ccsc1C(=O)O | 65.2* | -20.2 | 1766* | 11.1*
Cc1cc(C)n(-c2cc(C(=O)O)ccc2C)n1 | 100.1 | 21.2 | . | .
Cc1ccc(C)n1-c1ccc(C(=O)O)cc1O | 30.7* | 55.8* | 3903* | 50.5*
Cc1cc(=O)cc(C)n1-c1ccccc1O | . | -2.9 | . | .
Cc1ccc(C(=O)O)cc1-n1c(C)ccc1C | 66.8* | -2.6 | 3689* | 53.9*
COc1ccc2c3c1OC1CC(O)C=CC31CCN(C)C2 (centres undefined) | 105.9 | . | . | .
CN1C(C(=O)c2ccccc2)=C(NC(=O)c2ccccc2)c2ccccc2S1(=O)=O | 67.0* | -4.8 | 42284 | 66.1
CCN1C(C(=O)c2ccccc2)=C(NC(=O)c2ccc(Cl)cc2)c2ccccc2S1(=O)=O | 104.3 | -1.8 | . | .
COC(CNC(=O)c1ccc2c(c1)N(Cc1ccccc1F)C(=O)c1ccccc1S2=O)OC (centres undefined) | 101.3 | . | . | .
O=C(c1cccs1)N(Cc1cccnc1)Cc1ccc(Cl)cc1Cl | 101.8 | -9.2 | . | .
COc1ccc(-c2nnc(SCC(=O)Nc3ccc(C)cc3)nc2-c2ccc(OC)cc2)cc1 | 90.8 | . | 47508 | 65.5
COc1ccc(-c2nnc(SCC(=O)Nc3cccc(C)c3C)nc2-c2ccc(OC)cc2)cc1 | 118.9 | . | . | .
CCOC(=O)c1cc2n(n1)CC(C)(C(=O)NC1CCCCC1)N(c1cc(OC)cc(OC)c1)C2=O (centres undefined) | 96.1 | 2.9 | . | .
Cc1nn(-c2ccc3nncn3n2)c(C)c1CCC(=O)Nc1ccc(F)c(Cl)c1 | 89.4 | . | 27312 | 78.2

# Exported field by field: 3 of the compounds above.
> O=C(CN1C(=O)/C(=C2\SC(N3CCOCC3)=NC2=O)c2ccccc21)Nc1ccc(F)cc1
  GIV Gai3 FP: 104.8	HCMV UL50-53 inh: .	GIV Gai AS conf: .	GIV-Gai FP conf: .

> NC1=NC(c2ccccc2)C(C(=O)c2ccccc2)N1 (centres undefined)
  GIV Gai3 FP: 105.1	HCMV UL50-53 inh: -48.5	GIV Gai AS conf: .	GIV-Gai FP conf: .

> Cc1ccc(-n2c(/C=C/c3c(C)n(C)c4ccccc34)nc3ccccc3c2=O)cc1
  GIV Gai3 FP: 88.2	HCMV UL50-53 inh: -24.5	GIV Gai AS conf: 36423	GIV-Gai FP conf: 76

# Other results follow:
Molecule | GIV Gai3 FP | HCMV UL50-53 inh | GIV Gai AS conf | GIV-Gai FP conf
CC(=O)Nc1ccc(NC(=O)CCc2c(C)nn(-c3ccc4nncn4n3)c2C)cc1 | 103.1 | . | . | .
CCOC(=O)c1c(C)nc2c(c1-c1ccc(OC)c(OC)c1)C(=O)c1ccccc1-2 | . | -22.0 | . | .
COC(=O)c1ccc(-c2c3c(nc4nc(N)[nH]c(=O)c24)-c2ccccc2C3=O)cc1 | 75.1* | -75.3 | 26602 | 75
CC(C)n1c(N2CCCN(C(=O)CCC3CCCC3)CC2)cc(=O)n(C(C)C)c1=O | 101.4 | . | . | .
O=S1(=O)N=C(Nc2ccccc2)c2ccccc21 | . | -22.5 | . | .
N#Cc1ccc(NC2=NS(=O)(=O)c3ccccc32)cc1 | 92.0 | -2.0 | 35009 | 77.2
CCOC(=O)C1C(=O)C=C(Nc2sc3c(c2C#N)CCCC3)CC1c1cccc(OC)c1 (centres undefined) | . | -14.0 | . | .
NC(=O)c1nc(-c2cccc(O)c2)nc2c1[nH]c(=O)n2CC1CCCO1 (centres undefined) | 97.8 | -12.7 | . | .
O=C1CCCC(O)=C1C=NCCCn1ccnc1 | 86.9 | -19.1 | 3828* | 66.2
O=C1CCCC(O)=C1C=Nc1ccc(N=CC2=C(O)CCCC2=O)cc1 | 101.4 | -13.3 | . | .
COc1cccc(C(c2nnnn2CCC(C)C)N2CCN(c3cccc(C)c3C)CC2)c1OC (centres undefined) | 98.4 | -5.5 | . | .
O=c1c2ccccc2c2nc3c(=O)c4ccccc4c3nc12 | 103.2 | -36.5 | . | .
O=c1c(=NO)c(=O)c2ccccc12 | 54.6* | 61.8 | 13907* | 46.7*
O=C(C1CCCCC1)N1CCCN(c2ccc(=O)n(-c3ccccc3)n2)CC1 | 97.7 | -35.0 | . | .
CCOC(=O)c1cc2c(=O)n3ccccc3nc2n(C2CCCCC2)c1=N | 107.1 | -34.6 | . | .
N=c1c(C(N)=O)cc2c(=O)n3ccccc3nc2n1C1CCCC1 | 90.2 | -125.1 | 36264 | 69.9
O=C(CN(c1ccc(Cl)c(C(F)(F)F)c1)S(=O)(=O)c1ccccc1)N1CCc2ccccc2C1 | 109.4 | -7.1 | . | .
Cc1c(C(=O)NC2CCCCC2)sc2nc3ccc(N)cc3n12 | . | 6.3 | . | .
CCCCOc1ccc(NC(=O)c2sc3nc(N)c(C#N)cc3c2N)cc1 | 116.3 | . | . | .
O=C(O)CCc1ccc(-c2cccs2)o1 | . | -7.6 | . | .
Cc1cccc(C2C3=C(Nc4c2c(=O)[nH]c(=O)n4C)c2ccccc2C3=O)c1 (centres undefined) | 108.9 | -30.8 | . | .
O=c1[nH]c2ccccc2nc1NCc1ccccc1 | 100.4 | -29.0 | . | .
Nc1nc(NCc2ccccc2)c(I)c(=O)[nH]1 | 50.2* | 65.8* | 2457* | 46.3*
